Assay results taken from the NIST ThermoML archive (doi:10.1016/j.jct.2015.02.007).

Test: xn = mol fraction of the nth substance listed
Settings: 100 kPa, Liquid; for speed of sound: Pulse-echo method; for mass density: Vibrating tube method

OCCOCCOCCOCCO [tetraethylene glycol] + O
Settings	mass density [kg/m3]	speed of sound [m/s]
293.15 K, x1 = 0.0116	1015.75	–
293.15 K, x1 = 0.0203	1027.07	–
293.15 K, x1 = 0.0406	1049.08	–
293.15 K, x1 = 0.0605	1065.39	–
293.15 K, x1 = 0.0806	1077.8	–
293.15 K, x1 = 0.1024	1087.94	–
293.15 K, x1 = 0.1511	1102.17	–
293.15 K, x1 = 0.2006	1109.91	–
293.15 K, x1 = 0.25	1114.32	–
293.15 K, x1 = 0.3012	1117.1	–
293.15 K, x1 = 0.4024	1120.07	–
293.15 K, x1 = 0.4964	1121.5	–
293.15 K, x1 = 0.5985	1122.41	–
293.15 K, x1 = 0.6122	–	1639.6
293.15 K, x1 = 0.7018	1122.98	–
293.15 K, x1 = 0.7276	–	1628.3
293.15 K, x1 = 0.759	1123.21	–
293.15 K, x1 = 0.8201	1123.39	–
293.15 K, x1 = 0.8253	–	1621.8
293.15 K, x1 = 0.8353	1123.43	–
293.15 K, x1 = 0.8804	1123.55	–
293.15 K, x1 = 0.9044	–	1618.7
293.15 K, x1 = 0.9237	1123.66	–
293.15 K, x1 = 0.9677	–	1616.8
293.15 K, x1 = 0.9719	1123.8	–
293.15 K, x1 = 1	1123.9	1615.3
298.15 K, x1 = 0.0003	–	1498.5
298.15 K, x1 = 0.0008	–	1501.4
298.15 K, x1 = 0.0017	–	1506.5
298.15 K, x1 = 0.0033	–	1515.1
298.15 K, x1 = 0.0051	–	1524.8
298.15 K, x1 = 0.0074	–	1536.8
298.15 K, x1 = 0.0104	–	1551.5
298.15 K, x1 = 0.0116	1014.3	–
298.15 K, x1 = 0.0142	–	1568.8
298.15 K, x1 = 0.0186	–	1587.5
298.15 K, x1 = 0.0203	1025.37	–
298.15 K, x1 = 0.0239	–	1608
298.15 K, x1 = 0.0284	–	1623.9
298.15 K, x1 = 0.0324	–	1636.7
298.15 K, x1 = 0.0383	–	1653.7
298.15 K, x1 = 0.0406	1046.75	–
298.15 K, x1 = 0.0442	–	1668.6
298.15 K, x1 = 0.0498	–	1680.9
298.15 K, x1 = 0.0553	–	1691.6
298.15 K, x1 = 0.0605	1062.57	–
298.15 K, x1 = 0.0653	–	1707.4
298.15 K, x1 = 0.0726	–	1716.5
298.15 K, x1 = 0.0798	–	1723.8
298.15 K, x1 = 0.0806	1074.61	–
298.15 K, x1 = 0.0829	–	1726.4
298.15 K, x1 = 0.0895	–	1731.1
298.15 K, x1 = 0.0901	–	1731.5
298.15 K, x1 = 0.0991	–	1736
298.15 K, x1 = 0.1005	–	1736.6
298.15 K, x1 = 0.1024	1084.47	–
298.15 K, x1 = 0.1092	–	1739.2
298.15 K, x1 = 0.1121	–	1739.8
298.15 K, x1 = 0.1182	–	1740.6
298.15 K, x1 = 0.1266	–	1740.9
298.15 K, x1 = 0.1376	–	1740
298.15 K, x1 = 0.1498	–	1737.9
298.15 K, x1 = 0.1511	1098.43	–
298.15 K, x1 = 0.1606	–	1735.2
298.15 K, x1 = 0.1728	–	1731.4
298.15 K, x1 = 0.186	–	1726.8
298.15 K, x1 = 0.2006	1106.1	–
298.15 K, x1 = 0.2067	–	1719.1
298.15 K, x1 = 0.2378	–	1707.1
298.15 K, x1 = 0.25	1110.48	–
298.15 K, x1 = 0.2631	–	1697.8
298.15 K, x1 = 0.3012	1113.23	–
298.15 K, x1 = 0.3049	–	1683.8
298.15 K, x1 = 0.3449	–	1672.2
298.15 K, x1 = 0.4024	1116.15	–
298.15 K, x1 = 0.4055	–	1657.7
298.15 K, x1 = 0.485	–	1642.7
298.15 K, x1 = 0.4964	1117.56	–
298.15 K, x1 = 0.5922	–	1627
298.15 K, x1 = 0.5985	1118.47	–
298.15 K, x1 = 0.7004	–	1614.8
298.15 K, x1 = 0.7018	1119.05	–
298.15 K, x1 = 0.759	1119.26	–
298.15 K, x1 = 0.8201	1119.44	–
298.15 K, x1 = 0.8265	–	1605.7
298.15 K, x1 = 0.8353	1119.48	–
298.15 K, x1 = 0.8804	1119.58	–
298.15 K, x1 = 0.9098	–	1602.7
298.15 K, x1 = 0.9237	1119.68	–
298.15 K, x1 = 0.9665	–	1600.8
298.15 K, x1 = 0.9719	1119.82	–
298.15 K, x1 = 1	1119.92	1599.1
303.15 K, x1 = 0.0003	–	1511.2
303.15 K, x1 = 0.0011	–	1515.2
303.15 K, x1 = 0.0027	–	1523.7
303.15 K, x1 = 0.0048	–	1535
303.15 K, x1 = 0.0078	–	1549.5
303.15 K, x1 = 0.011	–	1564.3
303.15 K, x1 = 0.0116	1012.58	–
303.15 K, x1 = 0.0142	–	1577.9
303.15 K, x1 = 0.0174	–	1590.9
303.15 K, x1 = 0.0203	1023.4	–
303.15 K, x1 = 0.0215	–	1605.9
303.15 K, x1 = 0.0264	–	1622.5
303.15 K, x1 = 0.0325	–	1640.8
303.15 K, x1 = 0.0385	–	1656.3
303.15 K, x1 = 0.0406	1044.25	–
303.15 K, x1 = 0.0438	–	1668.2
303.15 K, x1 = 0.0496	–	1679.6
303.15 K, x1 = 0.0549	–	1688.7
303.15 K, x1 = 0.0605	1059.64	–
303.15 K, x1 = 0.0609	–	1697.5
303.15 K, x1 = 0.067	–	1705
303.15 K, x1 = 0.0765	–	1714.2
303.15 K, x1 = 0.0806	1071.38	–
303.15 K, x1 = 0.0831	–	1719
303.15 K, x1 = 0.0852	–	1720.3
303.15 K, x1 = 0.0883	–	1722
303.15 K, x1 = 0.0911	–	1723.4
303.15 K, x1 = 0.0971	–	1725.8
303.15 K, x1 = 0.0993	–	1726.5
303.15 K, x1 = 0.1024	1081.01	–
303.15 K, x1 = 0.104	–	1727.7
303.15 K, x1 = 0.1106	–	1728.8
303.15 K, x1 = 0.1136	–	1729
303.15 K, x1 = 0.1203	–	1729.3
303.15 K, x1 = 0.1252	–	1729.1
303.15 K, x1 = 0.1427	–	1726.6
303.15 K, x1 = 0.1511	1094.7	–
303.15 K, x1 = 0.1568	–	1723.1
303.15 K, x1 = 0.1769	–	1716.7
303.15 K, x1 = 0.1966	–	1709.4
303.15 K, x1 = 0.2006	1102.25	–
303.15 K, x1 = 0.2222	–	1699.5
303.15 K, x1 = 0.25	1106.58	–
303.15 K, x1 = 0.261	–	1684.7
303.15 K, x1 = 0.2948	–	1673
303.15 K, x1 = 0.3012	1109.3	–
303.15 K, x1 = 0.346	–	1657.6
303.15 K, x1 = 0.4153	–	1640.9
303.15 K, x1 = 0.4781	–	1629
303.15 K, x1 = 0.5805	–	1613.5
303.15 K, x1 = 0.6796	–	1601.8
303.15 K, x1 = 0.7959	–	1591.9
303.15 K, x1 = 0.92	–	1586.7
303.15 K, x1 = 0.9652	–	1585
303.15 K, x1 = 1	–	1582.9
